Where “and” joins values, the source holds several entries; their conditions need not be identical. Equal values may be shown once. This is a selection; strong and weak results do not stand in their true shares. Results filed as inconclusive are left out. Calls of active or inactive are those of the source. Calls come from the whole dose curve; as a rule, active = well fitted inhibition curve with a large enough effect; inconclusive = small, poorly fitted or top-dose-only effect; inactive = no such curve, though single readings can be large or run the other way.
% is set by controls: 0 for no effect and ±100 for the full control effect.

Chains of the proteins cited; added tags and fusions are not shown. Lines headed by an entry give the natural chain unless they say otherwise; changes in a name come on top.
UniProt P02791: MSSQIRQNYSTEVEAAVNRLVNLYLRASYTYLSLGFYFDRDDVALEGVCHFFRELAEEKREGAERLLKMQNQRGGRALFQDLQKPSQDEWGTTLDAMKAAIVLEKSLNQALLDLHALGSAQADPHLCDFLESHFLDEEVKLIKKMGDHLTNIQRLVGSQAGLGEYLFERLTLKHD

The target of this experiment is Ferritin light chain (Equus caballus) (UniProt P02791). The experiment can be described thus: qHTS Assay for Identification of Novel General Anesthetics. Note: nearly all actives have a fitted effect of over 20% in size. Particulars: apoferritin/1-aminoanthracene competitive binding, fluorescence; at 77.5 µM (top of the series) unless noted.
Regarding `COC(=O)c1cc2c(s1)N=C(c1ccccc1)N(C)P2(=O)N1CCOCC1` (stereo unspecified), the activity change, negative = displacement is inactive: -10.3%.
Regarding `CN(C(=O)Cc1ccc(Cl)c(Cl)c1)[C@H]1CCCC[C@@H]1N1CCCC1`, the activity change, negative = displacement is inactive: -3.4% [middle of 5 runs].
The figure for `Cc1ccc(NP(=O)(Oc2ccccc2F)Oc2ccccc2F)nc1` is inactive: -5.51%; for `Cc1cc(SC(NC(=O)c2ccc(F)cc2)C(Cl)(Cl)Cl)ncn1` (stereo unspecified) it is inactive: -11.7%; for `CCOP(=O)(Nc1ccccc1)OCC` it is inactive: -3.16% and inactive: -9.97%.
Under `O=P(Nc1nc2ccc(Cl)cc2s1)(c1ccccc1)c1ccccc1` stands inactive: -7.92%.
Turning to `CC(=O)Nc1ccc([As](=O)(O)O)cc1`, the activity change, negative = displacement is inactive: 25.9%.
On to `O=C(O)c1ccccc1[As](=O)(O)O`, for which the activity change, negative = displacement was inactive: 11.2%.
Under `Nc1cccc2ccc([As](=O)(O)O)cc12` stands inactive: 51.6%; under `CCN(N=Nc1nonc1N)c1nonc1N`, inactive: -0.511%.
As for `O=[N+]([O-])c1cc([N+](=O)[O-])c(CCN2CCOCC2)c([N+](=O)[O-])c1`, the activity change, negative = displacement was inactive: -6.2%.
The figure for `CN1CCCC(OC(=O)C(c2ccccc2)c2ccccc2)C1` (stereo unspecified) is inactive: 1.83%; for `Cc1ccc(OP(=O)(Nc2nccs2)Oc2ccc(C)cc2)cc1` it is inactive: -13.8%.
The figure for `COc1ccccc1OP(=O)(Nc1ccc(C)cn1)Oc1ccccc1OC` is inactive: -5.35%.
Take `Cc1ccc(N/C(=N/P(=O)(N2CCOCC2)N2CCOCC2)N2CCOCC2)cc1`: the activity change, negative = displacement was inactive: -8.16%.
For `NC(=O)c1cc([N+](=O)[O-])cc([N+](=O)[O-])c1N`, the activity change, negative = displacement is inactive: -7.36%.
Take `O=C(NC(Sc1ccncn1)C(Cl)(Cl)Cl)c1ccccc1` (stereo unspecified): the activity change, negative = displacement is inactive: -2.24%.
The figure for `Cc1c2non([O-])c-2c(C)[n+](=O)[n+]1[O-]` is inactive: -17.8%; for `Nc1cc(N)c2nonc2c1[N+](=O)[O-]` it is inactive: 6.78%; for `CC(C)CC(=O)NC(Sc1ccc(Cl)cc1)C(Cl)(Cl)Cl` (stereo unspecified) it is inactive: -21.8%.
The figure for `CCc1nc2c(n1)c1c(non1O)c1c2no[n+]1[O-]` is inactive: -18.6%; for `Cc1ccc(NP(=O)(Oc2ccccc2)Oc2ccccc2)nc1` it is inactive: -3.5%.
The figure for `CC(=O)N1C2C3N(C(C)=O)C1C1N(C(C)=O)C(C(N1C(C)=O)N3C(C)=O)N2C(C)=O` is inactive: -3.17%; for `O=[N+]([O-])c1cccc2n[nH]nc12` it is inactive: -0.144%.
In the case of `COc1ccc(C2=NCC(CBr)S2)cc1` (stereo unspecified), the activity change, negative = displacement is inactive: -16%.
With `CC(=O)C1=CCCC2CCC1N2` (stereo unspecified), the activity change, negative = displacement is inactive: -1.36% and inactive: 3.1%.
Under `CN(C)C(=O)OCCc1n(C)cc[n+]1C` stands inactive: -9.12%; under `CC(C)=N/N=C(\N)N[N+](=O)[O-]`, inactive: -1.73%.
Under `CCN(/C(=N/P(=O)(N1CCOCC1)N1CCOCC1)N1CCOCC1)c1ccc(OC)cc1` stands inactive: -2.07%.
The figure for `C[N+]1=C2C=CC=CC=C2SC12C([N+](=O)[O-])=CC([N+](=O)[O-])=C[C-]2[N+](=O)[O-]` (stereo unspecified) is inactive: -6.8%; for `Nc1ccc([As](=O)(O)c2ccc(N)cc2)cc1` it is inactive: 8.62%; for `O=C(Nc1cc([As](=O)(O)O)ccc1O)c1ccccc1` it is inactive: 30.5%.
With `O=C(O)CNc1ccc([As](=O)(O)O)cc1`, the activity change, negative = displacement was inactive: 1%.
Turning to `O=[N+]([O-])c1cccc(NC2=NCC(CBr)S2)c1` (stereo unspecified), the activity change, negative = displacement is inactive: -17%.
The figure for `O=[N+]([O-])c1ncn(CCn2ncnc2[N+](=O)[O-])n1` is inactive: -0.814%.
With `CC(C)(C)C(=O)NC(Sc1ccncn1)C(Cl)(Cl)Cl` (stereo unspecified), the activity change, negative = displacement was inactive: 4.73%.

(Values after PubChem BioAssay AID485281 (National Center for Advancing Translational Sciences (NCATS), 2010).)
